We go through six compounds from US12616739B2, “GLP-1 prodrugs and uses thereof” (Novo Nordisk A/S, priority 2020, dated 2026).

Structures are written as SMILES.

This series is described as follows: Prodrug to drug conversion half-life in vitro, PBS pH 7.4, 37° C. Format: physicochemical. On the procedure:
General Methods for Measuring Conversion Half-Life
The assay was performed to investigate the conversion half-life of prodrug to drug of the prodrugs of the invention.
Peptide stock solutions were prepared by dissolving freeze-dried powder in PBS buffer to a target of 200 μM. PBS-buffer was Dulbecco's Phosphate Buffered Saline without CaCl2 and MgCl2, gibco 14190-094 adjusted to pH=7.4. The pH of the peptide stock solutions was adjusted to 7.4 with 0.02 M HCl or 0.02M NaOH. Samples were filled in Agilent HPLC vials with fixed insert. Vials were capped to prevent evaporation. The HPLC vials were incubated at 37° C. and samples were withdrawn at different time points over a period of 2 weeks, flash frozen at −80° C., and stored at −20° C. until analysis.
Sample analysis was carried out using UPLC coupled to UV detection at 215 nm and MS (UPLC-UV-MS). One μl of sample was injected on to a Waters Acquity UPLC with a flow-through-needle injection system and on to a Waters Acquity CSH C18 column (1*150 mm), with a particle size of 1.7 μm and held at 55° C. A flow-rate of 100 μl/min was delivered with a Binary solvent manager pump having 0.1% formic acid in water as solvent A and 0.1% formic acid in acetonitrile as solvent B. Gradient elution was carried out using 15-32% B from 0 to 4 min followed by 32 to 48% B from 4 to 54 min.
The identity of the prodrug was confirmed by MS and the peak purity, area %, from the UV signal at 215 nm was plotted as the natural logarithm against time and the slope (k) was used to calculate the first order half-life (T½)=T½=Ln(2)/k.
Usually half-life stands for how long it takes for the measured level to halve. Regarding `CC[C@H](C)[C@H](NC(=O)[C@H](Cc1ccccc1)NC(=O)[C@H](CCC(=O)O)NC(=O)[C@H](CCCCNC(=O)COCCOCCNC(=O)COCCOCCNC(=O)CC[C@H](NC(=O)CCCCCCCCCCCCCCCCC(=O)O)C(=O)O)NC(=O)[C@H](C)NC(=O)[C@H](C)NC(=O)[C@H](CCC(N)=O)NC(=O)CNC(=O)[C@H](CCC(=O)O)NC(=O)[C@H](CC(C)C)NC(=O)[C@H](Cc1ccc(O)cc1)NC(=O)[C@H](CO)NC(=O)[C@H](CO)NC(=O)[C@@H](NC(=O)[C@H](CC(=O)O)NC(=O)[C@H](CO)NC(=O)[C@@H](NC(=O)[C@H](Cc1ccccc1)NC(=O)[C@@H](NC(=O)CNC(=O)[C@H](CCC(=O)O)NC(=O)C(C)(C)NC(=O)[C@H](Cc1c[nH]cn1)NC(=O)CN(CCNC(=O)[C@H](CCC(=O)O)NC(=O)[C@H](CCC(=O)O)NC(=O)CC[C@H](NC(=O)CCCCCCCCCCCCCCC(=O)O)C(=O)O)C(=O)CN)[C@@H](C)O)[C@@H](C)O)C(C)C)C(=O)N[C@@H](C)C(=O)N[C@@H](Cc1c[nH]c2ccccc12)C(=O)N[C@@H](CC(C)C)C(=O)N[C@H](C(=O)N[C@@H](CCCNC(=N)N)C(=O)NCC(=O)N[C@@H](CCCNC(=N)N)C(=O)NCC(=O)O)C(C)C` [Chem. 22, Gly-N^α-2-[[(2S)-4-carboxy-2-[[(2S)-4-carboxy-2-[[(4S)-4-carboxy-4-(15-carboxypentadecanoylamino)butanoyl]amino]butanoyl]amino]butanoyl]amino]ethyl-Gly-semaglutide], the half-life is 173 h.
Under `CC[C@H](C)[C@H](NC(=O)[C@H](Cc1ccccc1)NC(=O)[C@H](CCC(=O)O)NC(=O)[C@H](CCCCNC(=O)COCCOCCNC(=O)COCCOCCNC(=O)CC[C@H](NC(=O)CCCCCCCCCCCCCCCCC(=O)O)C(=O)O)NC(=O)[C@H](C)NC(=O)[C@H](C)NC(=O)[C@H](CCC(N)=O)NC(=O)CNC(=O)[C@H](CCC(=O)O)NC(=O)[C@H](CC(C)C)NC(=O)[C@H](Cc1ccc(O)cc1)NC(=O)[C@H](CO)NC(=O)[C@H](CO)NC(=O)[C@@H](NC(=O)[C@H](CC(=O)O)NC(=O)[C@H](CO)NC(=O)[C@@H](NC(=O)[C@H](Cc1ccccc1)NC(=O)[C@@H](NC(=O)CNC(=O)[C@H](CCC(=O)O)NC(=O)C(C)(C)NC(=O)[C@H](Cc1c[nH]cn1)NC(=O)CN(CCNC(=O)[C@H](CCCCN)NC(=O)CC[C@H](NC(=O)CCCCCCCCCCCCCCC(=O)O)C(=O)O)C(=O)CN)[C@@H](C)O)[C@@H](C)O)C(C)C)C(=O)N[C@@H](C)C(=O)N[C@@H](Cc1c[nH]c2ccccc12)C(=O)N[C@@H](CC(C)C)C(=O)N[C@H](C(=O)N[C@@H](CCCNC(=N)N)C(=O)NCC(=O)N[C@@H](CCCNC(=N)N)C(=O)NCC(=O)O)C(C)C` [Chem. 23, Gly-N^α-2-[[(2S)-4-carboxy-2-[[(2S)-4-carboxy-2-[[(4S)-4-carboxy-4-(15-carboxypentadecanoylamino)butanoyl]amino]butanoyl]amino]butanoyl]amino]ethyl-Gly-semaglutide] stands 132 h.
On to `CC[C@H](C)[C@H](NC(=O)[C@H](Cc1ccccc1)NC(=O)[C@H](CCC(=O)O)NC(=O)[C@H](CCCCNC(=O)COCCOCCNC(=O)COCCOCCNC(=O)CC[C@H](NC(=O)CCCCCCCCCCCCCCCCC(=O)O)C(=O)O)NC(=O)[C@H](C)NC(=O)[C@H](C)NC(=O)[C@H](CCC(N)=O)NC(=O)CNC(=O)[C@H](CCC(=O)O)NC(=O)[C@H](CC(C)C)NC(=O)[C@H](Cc1ccc(O)cc1)NC(=O)[C@H](CO)NC(=O)[C@H](CO)NC(=O)[C@@H](NC(=O)[C@H](CC(=O)O)NC(=O)[C@H](CO)NC(=O)[C@@H](NC(=O)[C@H](Cc1ccccc1)NC(=O)[C@@H](NC(=O)CNC(=O)[C@H](CCC(=O)O)NC(=O)C(C)(C)NC(=O)[C@H](Cc1c[nH]cn1)NC(=O)CN(CCNC(=O)[C@H](CO)NC(=O)CC[C@H](NC(=O)CCCCCCCCCCCCCCC(=O)O)C(=O)O)C(=O)CN)[C@@H](C)O)[C@@H](C)O)C(C)C)C(=O)N[C@@H](C)C(=O)N[C@@H](Cc1c[nH]c2ccccc12)C(=O)N[C@@H](CC(C)C)C(=O)N[C@H](C(=O)N[C@@H](CCCNC(=N)N)C(=O)NCC(=O)N[C@@H](CCCNC(=N)N)C(=O)NCC(=O)O)C(C)C` [Chem. 24, Gly-N^α-2-[[(2S)-2-[[(4S)-4-carboxy-4-(15-carboxypentadecanoylamino)butanoyl]amino]-3-hydroxypropanoyl]amino]ethyl-Gly-semaglutide], for which the half-life was 161 h.
The result for `CC[C@H](C)[C@H](NC(=O)[C@H](Cc1ccccc1)NC(=O)[C@H](CCC(=O)O)NC(=O)[C@H](CCCCNC(=O)COCCOCCNC(=O)COCCOCCNC(=O)CC[C@H](NC(=O)CCCCCCCCCCCCCCCCC(=O)O)C(=O)O)NC(=O)[C@H](C)NC(=O)[C@H](C)NC(=O)[C@H](CCC(N)=O)NC(=O)CNC(=O)[C@H](CCC(=O)O)NC(=O)[C@H](CC(C)C)NC(=O)[C@H](Cc1ccc(O)cc1)NC(=O)[C@H](CO)NC(=O)[C@H](CO)NC(=O)[C@@H](NC(=O)[C@H](CC(=O)O)NC(=O)[C@H](CO)NC(=O)[C@@H](NC(=O)[C@H](Cc1ccccc1)NC(=O)[C@@H](NC(=O)CNC(=O)[C@H](CCC(=O)O)NC(=O)C(C)(C)NC(=O)[C@H](Cc1c[nH]cn1)NC(=O)CN(CCNC(=O)CNC(=O)CC[C@H](NC(=O)CCCCCCCCCCCCCCC(=O)O)C(=O)O)C(=O)CN)[C@@H](C)O)[C@@H](C)O)C(C)C)C(=O)N[C@@H](C)C(=O)N[C@@H](Cc1c[nH]c2ccccc12)C(=O)N[C@@H](CC(C)C)C(=O)N[C@H](C(=O)N[C@@H](CCCNC(=N)N)C(=O)NCC(=O)N[C@@H](CCCNC(=N)N)C(=O)NCC(=O)O)C(C)C` [Chem. 25, Gly-N^α-2-[[2-[[(4S)-4-carboxy-4-(15-carboxypentadecanoylamino)butanoyl]amino]acetyl]amino]ethyl-Gly-semaglutide] reads 146 h; that for `CC[C@H](C)[C@H](NC(=O)[C@H](Cc1ccccc1)NC(=O)[C@H](CCC(=O)O)NC(=O)[C@H](CCCCNC(=O)COCCOCCNC(=O)COCCOCCNC(=O)CC[C@H](NC(=O)CCCCCCCCCCCCCCCCC(=O)O)C(=O)O)NC(=O)[C@H](C)NC(=O)[C@H](C)NC(=O)[C@H](CCC(N)=O)NC(=O)CNC(=O)[C@H](CCC(=O)O)NC(=O)[C@H](CC(C)C)NC(=O)[C@H](Cc1ccc(O)cc1)NC(=O)[C@H](CO)NC(=O)[C@H](CO)NC(=O)[C@@H](NC(=O)[C@H](CC(=O)O)NC(=O)[C@H](CO)NC(=O)[C@@H](NC(=O)[C@H](Cc1ccccc1)NC(=O)[C@@H](NC(=O)CNC(=O)[C@H](CCC(=O)O)NC(=O)C(C)(C)NC(=O)[C@H](Cc1c[nH]cn1)NC(=O)CN(CCNC(=O)CC[C@H](NC(=O)CCCCCCCCCCCCCCCCCCC(=O)O)C(=O)O)C(=O)CN)[C@@H](C)O)[C@@H](C)O)C(C)C)C(=O)N[C@@H](C)C(=O)N[C@@H](Cc1c[nH]c2ccccc12)C(=O)N[C@@H](CC(C)C)C(=O)N[C@H](C(=O)N[C@@H](CCCNC(=N)N)C(=O)NCC(=O)N[C@@H](CCCNC(=N)N)C(=O)NCC(=O)O)C(C)C` [Chem. 27, Gly-N^α-2-[[(4S)-4-carboxy-4-(19-carboxynonadecanoylamino)butanoyl]amino]ethyl-Gly-semaglutide], 113 h.
Under `CC[C@H](C)[C@H](NC(=O)[C@H](Cc1ccccc1)NC(=O)[C@H](CCC(=O)O)NC(=O)[C@H](CCCCNC(=O)COCCOCCNC(=O)COCCOCCNC(=O)CC[C@H](NC(=O)CCCCCCCCCCCCCCCCC(=O)O)C(=O)O)NC(=O)[C@H](C)NC(=O)[C@H](C)NC(=O)[C@H](CCC(N)=O)NC(=O)CNC(=O)[C@H](CCC(=O)O)NC(=O)[C@H](CC(C)C)NC(=O)[C@H](Cc1ccc(O)cc1)NC(=O)[C@H](CO)NC(=O)[C@H](CO)NC(=O)[C@@H](NC(=O)[C@H](CC(=O)O)NC(=O)[C@H](CO)NC(=O)[C@@H](NC(=O)[C@H](Cc1ccccc1)NC(=O)[C@@H](NC(=O)CNC(=O)[C@H](CCC(=O)O)NC(=O)C(C)(C)NC(=O)[C@H](Cc1c[nH]cn1)NC(=O)CN(CCNC(=O)CC[C@H](NC(=O)CC[C@H](NC(=O)CCCCCCCCCCCCCCCCC(=O)O)C(=O)O)C(=O)O)C(=O)CN)[C@@H](C)O)[C@@H](C)O)C(C)C)C(=O)N[C@@H](C)C(=O)N[C@@H](Cc1c[nH]c2ccccc12)C(=O)N[C@@H](CC(C)C)C(=O)N[C@H](C(=O)N[C@@H](CCCNC(=N)N)C(=O)NCC(=O)N[C@@H](CCCNC(=N)N)C(=O)NCC(=O)O)C(C)C` [Chem. 28, Gly-N^α-2-[[(4S)-4-carboxy-4-[[(4S)-4-carboxy-4-(17-carboxyheptadecanoylamino)butanoyl]amino]butanoyl]amino]ethyl-Gly-semaglutide] stands 166 h.
